Values of other authors, collected in US20060110767A1, “Genotyping assay to predict cytochrome P4503A5 exression” (priority 2001, published 2006).

By UniProt entry, the sequences of proteins in these tests, tags left out.
UniProt P24462, whole entry: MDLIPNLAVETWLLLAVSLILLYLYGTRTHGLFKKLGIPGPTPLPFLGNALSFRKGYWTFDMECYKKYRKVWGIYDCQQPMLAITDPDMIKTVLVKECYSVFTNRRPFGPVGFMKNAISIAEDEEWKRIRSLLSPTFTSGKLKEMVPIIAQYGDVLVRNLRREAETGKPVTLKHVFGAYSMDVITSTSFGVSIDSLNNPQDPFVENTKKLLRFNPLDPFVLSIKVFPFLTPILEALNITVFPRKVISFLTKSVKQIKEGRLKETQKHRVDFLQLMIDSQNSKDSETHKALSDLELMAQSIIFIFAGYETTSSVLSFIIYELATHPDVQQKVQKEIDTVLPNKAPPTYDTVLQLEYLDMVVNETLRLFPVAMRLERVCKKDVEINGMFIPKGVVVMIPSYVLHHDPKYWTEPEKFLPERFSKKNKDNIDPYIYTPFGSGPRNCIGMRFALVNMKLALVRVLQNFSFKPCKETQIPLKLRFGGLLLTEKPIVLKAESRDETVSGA
UniProt P08684, whole entry: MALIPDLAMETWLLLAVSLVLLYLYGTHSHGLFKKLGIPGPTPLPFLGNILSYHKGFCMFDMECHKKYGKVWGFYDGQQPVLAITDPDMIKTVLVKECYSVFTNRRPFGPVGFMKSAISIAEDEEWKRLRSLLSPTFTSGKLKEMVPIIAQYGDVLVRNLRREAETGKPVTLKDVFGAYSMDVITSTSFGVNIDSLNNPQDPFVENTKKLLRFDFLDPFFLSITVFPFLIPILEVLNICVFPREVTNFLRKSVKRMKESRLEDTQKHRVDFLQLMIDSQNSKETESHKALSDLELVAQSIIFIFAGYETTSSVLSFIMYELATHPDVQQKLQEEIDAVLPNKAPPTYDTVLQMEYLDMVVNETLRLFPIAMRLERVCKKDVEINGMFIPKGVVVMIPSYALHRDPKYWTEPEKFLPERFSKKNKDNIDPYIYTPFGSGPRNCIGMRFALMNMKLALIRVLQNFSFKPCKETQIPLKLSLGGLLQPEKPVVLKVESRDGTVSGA
UniProt P20815, whole entry: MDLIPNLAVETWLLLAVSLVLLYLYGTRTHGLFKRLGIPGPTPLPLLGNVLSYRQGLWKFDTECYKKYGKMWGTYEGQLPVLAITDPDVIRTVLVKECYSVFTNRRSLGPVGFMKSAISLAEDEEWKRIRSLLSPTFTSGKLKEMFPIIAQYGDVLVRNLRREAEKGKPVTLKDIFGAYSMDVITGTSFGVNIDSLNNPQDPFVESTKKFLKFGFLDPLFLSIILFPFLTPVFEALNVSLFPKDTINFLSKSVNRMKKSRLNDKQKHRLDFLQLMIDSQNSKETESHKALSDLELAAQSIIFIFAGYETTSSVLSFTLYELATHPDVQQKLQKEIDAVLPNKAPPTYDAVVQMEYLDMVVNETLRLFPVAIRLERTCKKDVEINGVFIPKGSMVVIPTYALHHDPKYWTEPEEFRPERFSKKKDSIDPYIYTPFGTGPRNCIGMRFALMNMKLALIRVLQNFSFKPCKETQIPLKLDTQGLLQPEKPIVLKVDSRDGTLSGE

Experiments:
Design in all cases: key to the marks not given beside the values
Settings in all cases: cited from earlier work
CYP3A7 = CYP3A7 (Homo sapiens, UniProt P24462)
CYP3A4 = CYP3A4 (Homo sapiens, UniProt P08684)
CYP3A5 = CYP3A5 (Homo sapiens, UniProt P20815)

dehydroepiandrosterone 3-sulphate [DHEA-S]
CYP isoforms expressed in cells 3A7 (CYP3A7): +++
CYP isoforms expressed in cells 3A4 (CYP3A4): ++
CYP isoforms expressed in cells 3A5 (CYP3A5): ++
